PubChem BioAssay (NCI)
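Where inhibition never reached the appropriate level, the endpoint shown equals the highest concentration tested. Otherwise, values were interpolated linearly from a five-concentration, 48-hour dose response in 96-well plates. GI50 is the concentration that inhibits growth by half. TGI: concentration producing complete growth inhibition.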

How the values were obtained:
Experiment in all cases: growth of human tumour cells (NCI), 48 h
[1] = system: CAKI-1 renal
[2] = system: PC-3 prostate
[3] = system: A498 renal
[4] = system: MALME-3M melanoma
[5] = system: SW-620 colon
[6] = system: COLO 205 colon
[7] = system: RXF 393 renal
[8] = system: ACHN renal
[9] = system: CCRF-CEM leukemia
[10] = system: NCI/ADR-RES ovarian
[11] = system: UACC-62 melanoma
[12] = system: SNB-19 CNS
[13] = system: SK-MEL-5 melanoma
[14] = system: MOLT-4 leukemia
[15] = system: HCT-116 colon
[16] = system: MDA-MB-435
[17] = system: IGROV1 ovarian
[18] = system: OVCAR-3 ovarian
[19] = system: NCI-H23 lung
[20] = system: SK-OV-3 ovarian
[21] = system: MCF7 breast
[22] = system: SR leukemia
[23] = system: HOP-92 NSCLC
[24] = system: SF-295 CNS
[25] = system: MDA-N
[26] = system: HL-60(TB) leukemia
[27] = system: HT29 colon
[28] = system: NCI-H460 lung
[29] = system: UACC-257 melanoma
[30] = system: KM12 colon
[31] = system: SF-268 CNS
[32] = system: EKVX NSCLC
[33] = system: M14 melanoma
[34] = system: HCC-2998 colon
[35] = system: OVCAR-4 ovarian
[36] = system: LOX IMVI melanoma
[37] = system: MDA-MB-231 breast
[38] = system: HCT-15 colon
[39] = system: OVCAR-5 ovarian
[40] = system: NCI-H226 lung
[41] = system: A549 NSCLC
[42] = system: HOP-62 NSCLC
[43] = system: U251 CNS
[44] = system: RPMI-8226 leukemia
[45] = system: BT-549 breast
[46] = system: OVCAR-8 ovarian
[47] = system: HS 578T breast
[48] = system: SK-MEL-28 melanoma
[49] = system: 786-0 renal
[50] = system: NCI-H322M lung
[51] = system: TK-10 renal
[52] = system: T-47D breast
[53] = system: SK-MEL-2 melanoma
[54] = system: SN12C renal
[55] = system: SF-539 CNS
[56] = system: SNB-75 CNS
[57] = system: NCI-H522 lung
[58] = system: UO-31 renal

SMILES: CC1=C[C@H]2O[C@@H]3C[C@H]4OC(=O)/C=C\C=C\C(C(C)O)OCC[C@@H](C)[C@H](O)C(=O)OC[C@@]2(CC1)[C@]4(C)[C@]31CO1 (stereo partly specified)
- GI50 [1]: 1.41 nM
- TGI [1]: 6.39 nM
- GI50 [2]: 1.14 nM
- TGI [2]: 2.59 nM
- GI50 [3]: < 1 nM
- TGI [3]: 2.72 nM
- GI50 [4]: < 1 nM
- TGI [4]: < 1 nM
- GI50 [5]: < 1 nM
- TGI [5]: 2.82 nM
- GI50 [6]: < 1 nM
- TGI [6]: < 1 nM
- GI50 [7]: < 1 nM
- TGI [7]: 1.16 nM
- GI50 [8]: < 1 nM
- TGI [8]: 4.23 nM
- GI50 [9]: < 1 nM
- TGI [9]: 1.71 nM
- GI50 [10]: 1.51 nM
- TGI [10]: 20 nM
- GI50 [11]: < 1 nM
- TGI [11]: 2.03 nM
- GI50 [12]: < 1 nM
- TGI [12]: 2.48 nM
- GI50 [13]: < 1 nM
- TGI [13]: < 1 nM
- GI50 [14]: < 1 nM
- TGI [14]: < 1 nM
- GI50 [15]: < 1 nM
- TGI [15]: 1.02 nM
- GI50 [16]: < 1 nM
- TGI [16]: 1.95 nM
- GI50 [17]: < 1 nM
- TGI [17]: 1.88 nM
- GI50 [18]: < 1 nM
- TGI [18]: < 1 nM
- GI50 [19]: < 1 nM
- TGI [19]: 1.49 nM
- GI50 [20]: < 1 nM
- TGI [20]: 1.31 nM
- GI50 [21]: < 1 nM
- TGI [21]: 11.1 nM
- GI50 [22]: < 1 nM
- TGI [22]: < 1 nM
- GI50 [23]: < 1 nM
- TGI [23]: 1.51 nM
- GI50 [24]: 1.13 nM
- TGI [24]: 3.66 nM
- GI50 [25]: < 1 nM
- TGI [25]: 1.46 nM
- GI50 [26]: < 1 nM
- TGI [26]: < 1 nM
- GI50 [27]: < 1 nM
- TGI [27]: 1.03 nM
- GI50 [28]: < 1 nM
- TGI [28]: < 1 nM
- GI50 [29]: < 1 nM
- TGI [29]: 2.31 nM
- GI50 [30]: < 1 nM
- TGI [30]: 1.88 nM
- GI50 [31]: 1.11 nM
- TGI [31]: 5.13 nM
- GI50 [32]: 1.11 nM
- TGI [32]: 4.09 nM
- GI50 [33]: < 1 nM
- TGI [33]: < 1 nM
- GI50 [34]: < 1 nM
- TGI [34]: < 1 nM
- GI50 [35]: < 1 nM
- TGI [35]: < 1 nM
- GI50 [36]: < 1 nM
- TGI [36]: < 1 nM
- GI50 [37]: 2.17 nM
- TGI [37]: 5.02 nM
- GI50 [38]: < 1 nM
- TGI [38]: < 1 nM
- GI50 [39]: 1.16 nM
- TGI [39]: 3.63 nM
- GI50 [40]: < 1 nM
- TGI [40]: < 1 nM
- GI50 [41]: < 1 nM
- TGI [41]: 2.73 nM
- GI50 [42]: < 1 nM
- TGI [42]: 2.61 nM
- GI50 [43]: < 1 nM
- TGI [43]: 5.45 nM
- GI50 [44]: < 1 nM
- TGI [44]: < 1 nM
- GI50 [45]: < 1 nM
- TGI [45]: 76.6 nM
- GI50 [46]: < 1 nM
- TGI [46]: 1.47 nM
- GI50 [47]: < 1 nM
- TGI [47]: 2.19 nM
- GI50 [48]: < 1 nM
- TGI [48]: < 1 nM
- GI50 [49]: 1.08 nM
- TGI [49]: 3.55 nM
- GI50 [50]: 2.35 nM
- TGI [50]: 13.5 nM
- GI50 [51]: < 1 nM
- TGI [51]: 2.64 nM
- GI50 [52]: < 1 nM
- TGI [52]: 1.81 nM
- GI50 [53]: < 1 nM
- TGI [53]: 1.51 nM
- GI50 [54]: < 1 nM
- TGI [54]: 13.1 nM
- GI50 [55]: < 1 nM
- TGI [55]: < 1 nM
- GI50 [56]: < 1 nM
- TGI [56]: 1.06 nM
- GI50 [57]: < 1 nM
- TGI [57]: < 1 nM
- GI50 [58]: 1.07 nM
- TGI [58]: 3.17 nM
